The values below come from ChEMBL document CHEMBL5137063, “Medicinal Chemistry and Chemical Biology of Nurr1 Modulators: An Emerging Strategy in Neurodegeneration” (J Med Chem, 2022).

By UniProt entry, the sequences of proteins in these tests, tags left out.
UniProt P43354, whole entry: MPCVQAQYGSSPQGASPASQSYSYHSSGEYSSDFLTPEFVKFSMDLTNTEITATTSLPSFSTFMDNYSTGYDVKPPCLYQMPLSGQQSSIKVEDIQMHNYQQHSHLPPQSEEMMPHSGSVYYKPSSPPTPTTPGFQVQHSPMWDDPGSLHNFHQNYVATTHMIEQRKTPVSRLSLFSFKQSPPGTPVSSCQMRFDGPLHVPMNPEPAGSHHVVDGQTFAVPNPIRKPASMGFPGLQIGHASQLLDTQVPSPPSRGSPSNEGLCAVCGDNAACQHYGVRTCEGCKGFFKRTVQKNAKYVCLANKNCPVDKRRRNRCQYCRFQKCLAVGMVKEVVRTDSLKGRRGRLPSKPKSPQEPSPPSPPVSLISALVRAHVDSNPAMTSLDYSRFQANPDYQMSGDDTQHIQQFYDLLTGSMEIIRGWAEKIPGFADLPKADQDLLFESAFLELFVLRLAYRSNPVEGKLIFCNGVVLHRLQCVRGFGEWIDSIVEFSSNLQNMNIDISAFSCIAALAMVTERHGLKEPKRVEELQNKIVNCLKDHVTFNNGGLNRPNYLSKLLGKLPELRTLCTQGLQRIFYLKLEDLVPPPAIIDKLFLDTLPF

The target of the assay is Nuclear receptor subfamily 4 group A member 2 (Homo sapiens, UniProt P43354). In words: Agonist activity at human Nurr1 measured by Gal4-Nurr1 hybrid reporter gene assay. Background: A reporter such as luciferase makes a cellular process visible.

As for `O=C(O)C[C@H](O)C[C@H](O)/C=C/c1c(C2CC2)nc2ccccc2c1-c1ccc(F)cc1` [PITAVASTATIN], the EC50 came out at 120 nM.

Broadly, the EC50 is the concentration giving half of the maximal effect.
